The structures appear in SMILES notation.

This is an account of results in ChEMBL document CHEMBL3526103, “Prediction of in vivo hepatic clearance and half-life of drug candidates in human using chimeric mice with humanized liver” (Drug Metab Dispos, 2012).

This data set relates to Nucleic Acid. Briefly: Ratio of drug level in blood to plasma in iv dosed human. Type of data set: ADME, organism-based. The conditions noted are these: in vivo.

For `COc1ccc2cc([C@H](C)C(=O)O)ccc2c1` [NAPROXEN], the Rblood_plasma came out at 0.55.
